Source: ChEMBL document CHEMBL5726183, “Geminal substituted quinuclidine amide compounds as agonists of α-7 nicotonic acetylcholine receptors” (2019)

By UniProt entry, the sequences of proteins in these tests, tags left out. Residues count along the entry.
UniProt P36544, 23-502 limits assumed: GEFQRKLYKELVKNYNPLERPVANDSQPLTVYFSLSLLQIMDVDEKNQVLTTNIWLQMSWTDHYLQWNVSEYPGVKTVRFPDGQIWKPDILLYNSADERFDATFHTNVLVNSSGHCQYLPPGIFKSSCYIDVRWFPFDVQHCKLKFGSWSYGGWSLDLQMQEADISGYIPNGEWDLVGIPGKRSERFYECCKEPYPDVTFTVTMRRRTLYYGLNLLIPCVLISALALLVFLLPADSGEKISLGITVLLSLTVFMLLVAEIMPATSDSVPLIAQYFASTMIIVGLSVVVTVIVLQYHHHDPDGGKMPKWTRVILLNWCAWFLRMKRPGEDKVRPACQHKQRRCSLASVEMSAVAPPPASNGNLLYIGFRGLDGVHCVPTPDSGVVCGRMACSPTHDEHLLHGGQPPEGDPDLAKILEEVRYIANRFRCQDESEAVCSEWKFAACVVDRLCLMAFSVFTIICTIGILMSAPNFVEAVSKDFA

Target: Neuronal acetylcholine receptor subunit alpha-7 (Homo sapiens, UniProt P36544)

Structure (SMILES) | pKi
CN(C)c1cccc2cc(C(=O)N[C@@H]3C4CCN(CC4)C3(C)C)sc12 | 5.80
Cn1c(C(=O)N[C@@H]2C3CCN(CC3)C23CC3)nc2ccccc21 | 4.70
O=C(N[C@@H]1C2CCN(CC2)C12CC2)c1cc2ccc(F)c(C(F)(F)F)c2s1 | 5.80
O=C(N[C@@H]1C2CCN(CC2)C12CC2)c1ccc2oc(Cl)cc2c1 | 6.48
O=C(N[C@@H]1C2CCN(CC2)C12CC2)c1ccc2ccoc2c1 | 5.89
COc1c(F)ccc2cc(C(=O)N[C@@H]3C4CCN(CC4)C34CC4)sc12 | 6.80
Cc1nc2ccc(C(=O)N[C@@H]3C4CCN(CC4)C3(C)C)cc2s1 | 5.12
CC1(C)[C@H](NC(=O)c2cc3cnc(N)nc3s2)C2CCN1CC2 | 5.80
CC1(C)[C@H](NC(=O)c2ccc3cccnc3c2)C2CCN1CC2 | 4.72
COc1cccc2cc(C(=O)N[C@@H]3C4CCN(CC4)C3(C)C)sc12 | 6.51
O=C(N[C@@H]1C2CCN(CC2)C12CC2)c1cc2ccc(Br)cc2s1 | 6.60
COc1c(C)ccc2cc(C(=O)N[C@@H]3C4CCN(CC4)C3(C)C)sc12 | 6.25
Cc1ccc2cc(C(=O)N[C@@H]3C4CCN(CC4)C34CC4)sc2c1Cl | 6.80
Cc1ccc2cc(C(=O)N[C@@H]3C4CCN(CC4)C34CC4)sc2c1F | 6.82
CC1(C)[C@H](NC(=O)c2cc3ccc(N)cc3s2)C2CCN1CC2 | 6.26
COc1ccc2cc(C(=O)N[C@@H]3C4CCN(CC4)C3(C)C)sc2c1 | 6.48
CC1(C)[C@H](NC(=O)c2ccc3[nH]ccc3c2)C2CCN1CC2 | 5.16
CC1(C)[C@H](NC(=O)c2cc3ccc(Cl)c(C(F)(F)F)c3s2)C2CCN1CC2 | 6.30
Cc1coc2ccc(C(=O)N[C@@H]3C4CCN(CC4)C34CC4)cc12 | 6.38
CC1(C)[C@@H](NC(=O)c2n[nH]c3ccccc23)C2CCN1CC2 | 5.10
O=C(NC1C2CCN(CC2)C12CC2)c1cc2cc(Cl)ccc2s1 (single isomer, unassigned) | 5.51 and 5.48
COCc1cccc2cc(C(=O)N[C@@H]3C4CCN(CC4)C34CC4)sc12 | 6.38

Structure (SMILES) | pKi
O=C(N[C@@H]1C2CCN(CC2)C12CC2)c1cc2ccc(N3CCC(F)(F)CC3)cc2s1 | 4.68
Nc1ncc2cc(C(=O)N[C@@H]3C4CCN(CC4)C34CC4)sc2n1 | 6.10
COc1c(C)ccc2cc(C(=O)N[C@@H]3C4CCN(CC4)C34CC4)sc12 | 6.52
O=C(N[C@@H]1C2CCN(CC2)C12CC2)c1cc2cccc(-c3nccs3)c2s1 | 6.83
CC1(C)[C@@H](NC(=O)c2cc3cccc(C(F)(F)F)c3s2)C2CCN1CC2 | 4.85
CC1(C)[C@H](NC(=O)c2cc3ccc(C(F)(F)F)cc3s2)C2CCN1CC2 | 4.64
CC1(C)[C@H](NC(=O)c2cc3ccc(Cl)cc3s2)C2CCN1CC2 | 6.31
CC1(C)[C@H](NC(=O)c2ccc3cc(Cl)sc3c2)C2CCN1CC2 | 6.26
CC1(C)[C@H](NC(=O)c2cc3ccncc3s2)C2CCN1CC2 | 5.27
CC1(C)[C@H](NC(=O)c2cc3cc(C4CC4)ccc3s2)C2CCN1CC2 | 5.92
O=C(N[C@@H]1C2CCN(CC2)C12CC2)c1cc2ccc(C3CCOCC3)cc2s1 | 4.70
COc1ccc2sc(C(=O)NC3C4CCN(CC4)C34CC4)cc2c1 (single isomer, unassigned) | 5.09 and 4.70
O=C(N[C@@H]1C2CCN(CC2)C12CC2)c1cc2ccncc2s1 | 6.05
CC1(C)[C@H](NC(=O)c2cc3cc(F)ccc3s2)C2CCN1CC2 | 6.39
CC1(C)[C@H](NC(=O)c2cc3cccc(Cl)c3o2)C2CCN1CC2 | 5.52
Cn1c(C(=O)N[C@@H]2C3CCN(CC3)C2(C)C)cc2ccccc21 | 5.27
Cc1cccc2cc(C(=O)N[C@@H]3C4CCN(CC4)C3(C)C)sc12 | 6.85
O=C(N[C@H]1C2CCN(CC2)C12CC2)c1cc2ccoc2cn1 | 4.96
CC1(C)[C@H](NC(=O)c2ccc3ccoc3c2)C2CCN1CC2 | 5.51
COCc1ccc2cc(C(=O)N[C@@H]3C4CCN(CC4)C34CC4)sc2c1 | 5.74
COc1ccc2cc(C(=O)N[C@@H]3C4CCN(CC4)C34CC4)sc2c1Cl | 6.10
O=C(N[C@@H]1C2CCN(CC2)C12CC2)c1ccc2occ(Cl)c2c1 | 6.51

Structure (SMILES) | pKi
Cc1nc2ccc(C(=O)N[C@@H]3C4CCN(CC4)C34CC4)cc2o1 | 4.82
CN(C)c1cccc2cc(C(=O)N[C@@H]3C4CCN(CC4)C34CC4)sc12 | 6.11
CC1(C)[C@H](NC(=O)c2cc3ccccc3cn2)C2CCN1CC2 | 6.28
Cn1c(C(=O)N[C@@H]2C3CCN(CC3)C23CC3)cc2ccccc21 | 5.66
O=C(N[C@@H]1C2CCN(CC2)C12CC2)c1cc2c(s1)CCCC2 | 4.92
O=C(N[C@@H]1C2CCN(CC2)C12CC2)c1cc2ccc(Cl)c(Cl)c2s1 | 7.26
COc1c(Cl)ccc2cc(C(=O)N[C@@H]3C4CCN(CC4)C3(C)C)sc12 | 6.26
Cc1ccc2cc(C(=O)N[C@@H]3C4CCN(CC4)C3(C)C)sc2c1Cl | 6.74
O=C(N[C@@H]1C2CCN(CC2)C12CC2)c1cc2cccc(-c3ccccc3)c2s1 | 6.51
CC1(C)[C@H](NC(=O)c2cc3ccccc3[nH]2)C2CCN1CC2 | 5.96
COc1c(C2CC2)ccc2cc(C(=O)N[C@@H]3C4CCN(CC4)C34CC4)sc12 | 5.59
O=C(N[C@@H]1C2CCN(CC2)C12CC2)c1ccc2c(c1)OCCO2 | 5.52
Cc1nc2ccc(C(=O)N[C@@H]3C4CCN(CC4)C34CC4)cc2s1 | 5.19
CC1(C)[C@H](NC(=O)c2nc3ccccc3[nH]2)C2CCN1CC2 | 4.82
Cc1csc2ccc(C(=O)N[C@@H]3C4CCN(CC4)C3(C)C)cc12 | 5.96
O=C(N[C@@H]1C2CCN(CC2)C12CC2)c1cc2cc(F)c(Cl)c(F)c2s1 | 6.51
O=C(N[C@@H]1C2CCN(CC2)C12CC2)c1cc2cccc(CC(F)(F)F)c2s1 | 6.50
O=C(N[C@@H]1C2CCN(CC2)C12CC2)c1cc2ccccc2cn1 | 5.82
CC1(C)[C@H](NC(=O)c2cc3ccc(C4CC4)cc3s2)C2CCN1CC2 | 6.45
Cc1cc2ccc(C(=O)N[C@@H]3C4CCN(CC4)C3(C)C)cc2s1 | 6.24
O=C(N[C@@H]1C2CCN(CC2)C12CC2)c1ccc2occc2c1 | 6.40
O=C(N[C@@H]1C2CCN(CC2)C12CC2)c1cc2ccc(C3CC3)c(Cl)c2s1 | 5.47

Structure (SMILES) | pKi
COc1ccc2cc(C(=O)N[C@@H]3C4CCN(CC4)C3(C)C)sc2c1F | 5.77
CC1(C)[C@H](NC(=O)c2cc3cccc(-c4nccs4)c3s2)C2CCN1CC2 | 6.49
CN(C)c1ccc2cc(C(=O)N[C@@H]3C4CCN(CC4)C34CC4)sc2c1 | 5.16
CC1(C)[C@H](NC(=O)c2cc3cccc(F)c3s2)C2CCN1CC2 | 6.62
CC1(C)[C@H](NC(=O)c2cc3cccc(S(C)(=O)=O)c3s2)C2CCN1CC2 | 5.23
CC1(C)[C@H](NC(=O)c2ccc3occc3c2)C2CCN1CC2 | 6.03
CC1(C)[C@@H](NC(=O)c2ccc3ccsc3c2)C2CCN1CC2 | 4.85
O=C(N[C@@H]1C2CCN(CC2)C12CC2)c1cc2cccc(C3CCOCC3)c2s1 | 5.92
CC1(C)[C@H](NC(=O)c2cc3ccc4c(c3s2)OCCC4)C2CCN1CC2 | 6.09
O=C(N[C@@H]1C2CCN(CC2)C12CC2)c1cc2cccc(C3(C(F)(F)F)CC3)c2s1 | 5.60
CC1(C)[C@H](NC(=O)c2nc3ccccc3s2)C2CCN1CC2 | 5.52
CCOc1ccc2cc(C(=O)N[C@@H]3C4CCN(CC4)C3(C)C)sc2c1 | 5.85
O=C(NC1C2CCN(CC2)C12CC2)c1ccc(Cl)cc1 (stereo not given) | 5.72
CC1(C)[C@H](NC(=O)c2cc3ccc(Br)cc3s2)C2CCN1CC2 | 6.34
CC1(C)[C@@H](NC(=O)c2cc3cc(F)ccc3s2)C2CCN1CC2 | 4.96
O=C(N[C@@H]1C2CCN(CC2)C12CC2)c1cc2cc(F)c(F)cc2s1 | 5.96
COc1cc2sc(C(=O)N[C@@H]3C4CCN(CC4)C34CC4)cc2cc1F | 6.25
Cn1cnc2ccc(C(=O)N[C@@H]3C4CCN(CC4)C34CC4)cc21 | 4.74
O=C(N[C@@H]1C2CCN(CC2)C12CC2)c1cc2ccc(F)c(Cl)c2s1 | 6.70

pKi: −log10 of the molar value. Several values for one entry are separate records, joined by “and”; a condition that tells them apart may be missing. Equal values may be shown once.
